The source of these data is US9302989B2 (priority 2010, dated 2016).

By UniProt entry, the sequences of proteins in these tests, tags left out. Where a name states a change or a piece, a line headed by the entry shows the natural chain unless it says otherwise.
UniProt P43490: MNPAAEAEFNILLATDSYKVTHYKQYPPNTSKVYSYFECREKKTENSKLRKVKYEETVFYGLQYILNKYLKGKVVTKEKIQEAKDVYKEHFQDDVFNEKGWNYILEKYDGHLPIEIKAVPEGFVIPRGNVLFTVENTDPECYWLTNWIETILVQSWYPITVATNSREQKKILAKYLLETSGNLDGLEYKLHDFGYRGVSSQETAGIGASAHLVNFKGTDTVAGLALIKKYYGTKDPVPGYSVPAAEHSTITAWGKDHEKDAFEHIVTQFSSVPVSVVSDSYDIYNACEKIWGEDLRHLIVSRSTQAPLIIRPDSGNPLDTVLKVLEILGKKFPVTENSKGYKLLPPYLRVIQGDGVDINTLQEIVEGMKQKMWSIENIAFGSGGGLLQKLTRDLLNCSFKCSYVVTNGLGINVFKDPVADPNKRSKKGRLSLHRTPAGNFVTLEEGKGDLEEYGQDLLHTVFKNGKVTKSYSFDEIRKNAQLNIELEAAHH

The assay has as its target NAMPT (Homo sapiens (Human), UniProt P43490). The conditions noted are these: read-out: TR-FRET Binding IC50 (μM) probe 1.
As for `O=C(Nc1ccc(C(=O)N2CCOCC2)cc1)N1Cc2ccccc2C1` [Example 246, N-[4-(morpholin-4-ylcarbonyl)phenyl]-1,3-dihydro-2H-isoindole-2-carboxamide], the half-maximal inhibitory concentration (IC50) was determined as 0.618 µM.

For the molecule `CC(C)CCn1cc(NC(=O)c2ccc(NC(=O)N3Cc4ccccc4C3)cc2)cn1` [Example 63, N-(4-{[1-(3-methylbutyl)-1H-pyrazol-4-yl]carbamoyl}phenyl)-1,3-dihydro-2H-isoindole-2-carboxamide], the half-inhibitory concentration (IC50) amounted to 0.0236 µM.

In the case of `O=C(NCCCn1ccnc1)c1ccc(NC(=O)N2Cc3ccccc3C2)cc1` [Example 148, N-(4-{[3-(1H-imidazol-1-yl)propyl]carbamoyl}phenyl)-1,3-dihydro-2H-isoindole-2-carboxamide], the IC50 was 0.0702 µM.

Turning to `O=C(N[C@H]1CCN(Cc2ccccc2)C1)c1ccc(NC(=O)N2Cc3ccccc3C2)cc1` [Example 220, N-(4-{[(3S)-1-benzylpyrrolidin-3-yl]carbamoyl}phenyl)-1,3-dihydro-2H-isoindole-2-carboxamide], the IC50 was 0.293 µM.

With `O=C(Nc1ccc(CCCCCc2ccccc2)cc1)N1Cc2ccccc2C1` [Example 327, N-[4-(5-phenylpentyl)phenyl]-1,3-dihydro-2H-isoindole-2-carboxamide], the IC50 was found to be 0.223 µM.

As to `CCCc1nc(-c2ccc(NC(=O)N3Cc4ccccc4C3)cc2)no1` [Example 402, N-[4-(5-propyl-1,2,4-oxadiazol-3-yl)phenyl]-1,3-dihydro-2H-isoindole-2-carboxamide], the IC50 came out at 0.183 µM.

As for `O=C(CN1CCOCC1)N1CCN(c2ccc(NC(=O)N3Cc4ccccc4C3)cc2)CC1` [Example 541, N-{4-[4-(morpholin-4-ylacetyl)piperazin-1-yl]phenyl}-1,3-dihydro-2H-isoindole-2-carboxamide], the IC50 turned out to be 0.225 µM.

`COc1ccccc1CNC(=O)c1ccc(NC(=O)N2Cc3ccccc3C2)cc1` [Example 21, N-{4-[(2-methoxybenzyl)carbamoyl]phenyl}-1,3-dihydro-2H-isoindole-2-carboxamide]: the 50% inhibitory concentration (IC50) was determined as 0.0112 µM.

Regarding `O=C(Nc1ccc(N2CCN(C(=O)c3cscn3)CC2)cc1)N1Cc2ccccc2C1` [Example 540, N-{4-[4-(1,3-thiazol-4-ylcarbonyl)piperazin-1-yl]phenyl}-1,3-dihydro-2H-isoindole-2-carboxamide], the half-maximal inhibitory concentration (IC50) was 0.137 µM.

On to `Nc1cccc(CNC(=O)c2ccc(NC(=O)N3Cc4ccccc4C3)cc2)c1` [Example 104, N-{4-[(3-aminobenzyl)carbamoyl]phenyl}-1,3-dihydro-2H-isoindole-2-carboxamide], for which the concentration for half-maximal inhibition (IC50) turned out to be 0.0395 µM.

Consider `O=C(Nc1ccc(C(=O)N2CCN(c3ncccn3)CC2)cc1)N1Cc2ccccc2C1` [Example 41, N-(4-{[4-(pyrimidin-2-yl)piperazin-1-yl]carbonyl}phenyl)-1,3-dihydro-2H-isoindole-2-carboxamide], for which the IC50 worked out at 0.0174 µM.

Regarding `CCCNC(=O)c1ccc(NC(=O)N2Cc3ccc(C(=O)NCCOC)cc3C2)cc1` [Example 442, N^5-(2-methoxyethyl)-N^2-{4-[(propylamino)carbonyl]phenyl}-1,3-dihydro-2H-isoindole-2,5-dicarboxamide], the IC50 came to 0.0492 µM.

On to `CC(C)CNC(=O)c1ccc(NC(=O)N2Cc3ccccc3C2)cc1` [Example 120, N-[4-(isobutylcarbamoyl)phenyl]-1,3-dihydro-2H-isoindole-2-carboxamide], for which the IC50 was 0.049 µM.

As for `O=C(CCCOc1ccccc1)Nc1ccc(NC(=O)N2Cc3ccccc3C2)cc1` [Example 302, N-{4-[(4-phenoxybutanoyl)amino]phenyl}-1,3-dihydro-2H-isoindole-2-carboxamide], the IC50 stood at 0.0157 µM.

In the case of `CCC(CC)C(=O)N1CC=C(c2ccc(NC(=O)N3Cc4ccccc4C3)cc2)CC1` [Example 460, N-{4-[1-(2-ethylbutanoyl)-1,2,3,6-tetrahydropyridin-4-yl]phenyl}-1,3-dihydro-2H-isoindole-2-carboxamide], the half-maximal inhibitory concentration (IC50) was determined as 0.0193 µM.

`COc1ccccc1CCNC(=O)c1ccc(NC(=O)N2Cc3ccccc3C2)cc1` [Example 122, N-(4-{[2-(2-methoxyphenyl)ethyl]carbamoyl}phenyl)-1,3-dihydro-2H-isoindole-2-carboxamide]: the IC50 came out at 0.0511 µM.

Take `O=C(Nc1ccc(C(=O)N2CCC(F)C2)cc1)N1Cc2ccccc2C1` (stereo not drawn) [Example 265, N-{4-[(3-fluoropyrrolidin-1-yl)carbonyl]phenyl}-1,3-dihydro-2H-isoindole-2-carboxamide]: the IC50 came to 2.24 µM.

Regarding `O=C(Nc1ccc(C2=CCN(C(=O)c3ccccc3)CC2)nc1)N1Cc2ccccc2C1` [Example 335, N-(1′-benzoyl-1′,2′,3′,6′-tetrahydro-2,4′-bipyridin-5-yl)-1,3-dihydro-2H-isoindole-2-carboxamide], the half-maximal inhibitory concentration (IC50) amounted to 0.00669 µM.

For `CCN(CC)C(=O)C1CCCN(C(=O)c2ccc(NC(=O)N3Cc4ccccc4C3)cc2)C1` (stereo not drawn) [Example 200, N-(4-{[3-(diethylcarbamoyl)piperidin-1-yl]carbonyl}phenyl)-1,3-dihydro-2H-isoindole-2-carboxamide], the IC50 worked out at 0.186 µM.

With `CCCC(C)NC(=O)c1ccc(NC(=O)N2Cc3ccccc3C2)cc1` (stereo not drawn) [Example 230, N-[4-(pentan-2-ylcarbamoyl)phenyl]-1,3-dihydro-2H-isoindole-2-carboxamide], the IC50 came to 0.369 µM.

In the case of `O=C(NCCCc1ccccc1)c1cnc(NC(=O)N2Cc3ccccc3C2)s1` [Example 371, N-{5-[(3-phenylpropyl)carbamoyl]-1,3-thiazol-2-yl}-1,3-dihydro-2H-isoindole-2-carboxamide], the 50% inhibitory concentration (IC50) came to 0.0395 µM.

For the molecule `CC(C)C[C@H](CO)NC(=O)c1ccc(NC(=O)N2Cc3ccccc3C2)cc1` [Example 106, N-(4-{[(2R)-1-hydroxy-4-methylpentan-2-yl]carbamoyl}phenyl)-1,3-dihydro-2H-isoindole-2-carboxamide], the IC50 amounted to 0.0263 µM.

For the molecule `O=C(Nc1cnn(Cc2ccccc2)c1)c1ccc(NC(=O)N2Cc3ccc(F)cc3C2)cc1` [Example 49, N-{4-[(1-benzyl-1H-pyrazol-4-yl)carbamoyl]phenyl}-5-fluoro-1,3-dihydro-2H-isoindole-2-carboxamide], the concentration for half-maximal inhibition (IC50) amounted to 0.0186 µM.

In the case of `CCn1cc(NC(=O)c2ccc(NC(=O)N3Cc4ccccc4C3)cc2)cn1` [Example 156, N-{4-[(1-ethyl-1H-pyrazol-4-yl)carbamoyl]phenyl}-1,3-dihydro-2H-isoindole-2-carboxamide], the half-inhibitory concentration (IC50) stood at 0.0836 µM.

For `NC1CCN(c2ccc(NC(=O)N3Cc4ccccc4C3)cc2)C1` (stereo not drawn) [Example 573, N-[4-(3-aminopyrrolidin-1-yl)phenyl]-1,3-dihydro-2H-isoindole-2-carboxamide], the IC50 was 1.26 µM.

Take `O=C(Nc1cccc(F)c1)c1ccc(NC(=O)N2Cc3ccccc3C2)cc1` [Example 223, N-{4-[(3-fluorophenyl)carbamoyl]phenyl}-1,3-dihydro-2H-isoindole-2-carboxamide]: the 50% inhibitory concentration (IC50) stood at 0.302 µM.

`CC(C)CCn1cc(-c2ccc(NC(=O)N3Cc4ccccc4C3)cn2)cn1` [Example 326, N-{6-[1-(3-methylbutyl)-1H-pyrazol-4-yl]pyridin-3-yl}-1,3-dihydro-2H-isoindole-2-carboxamide]: the IC50 came out at 0.0743 µM.

Consider `N#Cc1ccc(C(=O)N2CCN(c3ccc(NC(=O)N4Cc5ccccc5C4)cc3)CC2)cc1` [Example 519, N-{4-[4-(4-cyanobenzoyl)piperazin-1-yl]phenyl}-1,3-dihydro-2H-isoindole-2-carboxamide], for which the IC50 amounted to 0.0968 µM.

On to `Cc1ccc2c(c1)CN(C(=O)Nc1ccc(C(=O)NCCC(C)C)cc1)C2` [Example 43, 5-methyl-N-{4-[(3-methylbutyl)carbamoyl]phenyl}-1,3-dihydro-2H-isoindole-2-carboxamide], for which the 50% inhibitory concentration (IC50) came out at 0.0178 µM.

Consider `O=C(Nc1ccc(C2=CCN(C(=O)c3cccnn3)CC2)cc1)N1Cc2ccccc2C1` [Example 489, N-{4-[1-(pyridazin-3-ylcarbonyl)-1,2,3,6-tetrahydropyridin-4-yl]phenyl}-1,3-dihydro-2H-isoindole-2-carboxamide], for which the IC50 was found to be 0.0123 µM.

Regarding `O=C(Nc1ccc(Cl)cn1)c1ccc(NC(=O)N2Cc3ccccc3C2)cc1` [Example 413, N-{4-[(5-chloropyridin-2-yl)carbamoyl]phenyl}-1,3-dihydro-2H-isoindole-2-carboxamide], the concentration for half-maximal inhibition (IC50) was 2.01 µM.

As to `CC(C)[C@H](CO)NC(=O)c1ccc(NC(=O)N2Cc3ccccc3C2)cc1` [Example 256, N-(4-{[(2R)-1-hydroxy-3-methylbutan-2-yl]carbamoyl}phenyl)-1,3-dihydro-2H-isoindole-2-carboxamide], the IC50 was 1.23 µM.

Regarding `O=C(NCCCCCCNC(=O)N1Cc2ccccc2C1)N1Cc2ccccc2C1` [Example 353, N,N′-hexane-1,6-diylbis(1,3-dihydro-2H-isoindole-2-carboxamide)], the 50% inhibitory concentration (IC50) came to 0.00763 µM.

Take `O=C(NCCc1ccccc1F)c1ccc(NC(=O)N2Cc3ccccc3C2)cc1` [Example 119, N-(4-{[2-(2-fluorophenyl)ethyl]carbamoyl}phenyl)-1,3-dihydro-2H-isoindole-2-carboxamide]: the IC50 was found to be 0.0484 µM.

Consider `CCCCCCNC(=O)N1Cc2ccccc2C1` [Example 356, N-hexyl-1,3-dihydro-2H-isoindole-2-carboxamide], for which the IC50 came out at 0.404 µM.

With `CCCNC(=O)c1ccc(NC(=O)N2Cc3ccc(F)cc3C2)cc1` [Example 373, 5-fluoro-N-[4-(propylcarbamoyl)phenyl]-1,3-dihydro-2H-isoindole-2-carboxamide], the IC50 amounted to 0.0234 µM.

Consider `O=C(Nc1ccc(C(=O)N2CCN(c3cnccn3)CC2)cc1)N1Cc2ccc(F)cc2C1` [Example 35, 5-fluoro-N-(4-{[4-(pyrazin-2-yl)piperazin-1-yl]carbonyl}phenyl)-1,3-dihydro-2H-isoindole-2-carboxamide], for which the concentration for half-maximal inhibition (IC50) was determined as 0.0152 µM.

For the molecule `CCC(=O)Nc1ccc(NC(=O)N2Cc3ccccc3C2)cc1` [Example 303, N-[4-(propionylamino)phenyl]-1,3-dihydro-2H-isoindole-2-carboxamide], the half-inhibitory concentration (IC50) came out at 0.251 µM.

Consider `O=C(NCc1cc(F)cc(C(F)(F)F)c1)c1ccc(NC(=O)N2Cc3ccccc3C2)cc1` [Example 34, N-(4-{[3-fluoro-5-(trifluoromethyl)benzyl]carbamoyl}phenyl)-1,3-dihydro-2H-isoindole-2-carboxamide], for which the IC50 was determined as 0.0151 µM.
